Here are results for 17 molecules from PubChem BioAssay AID1452 (National Center for Advancing Translational Sciences (NCATS), 2008).

Protein sequences, listed by entry. Tags and fused reporters are not part of them.
UniProt P18054, whole entry: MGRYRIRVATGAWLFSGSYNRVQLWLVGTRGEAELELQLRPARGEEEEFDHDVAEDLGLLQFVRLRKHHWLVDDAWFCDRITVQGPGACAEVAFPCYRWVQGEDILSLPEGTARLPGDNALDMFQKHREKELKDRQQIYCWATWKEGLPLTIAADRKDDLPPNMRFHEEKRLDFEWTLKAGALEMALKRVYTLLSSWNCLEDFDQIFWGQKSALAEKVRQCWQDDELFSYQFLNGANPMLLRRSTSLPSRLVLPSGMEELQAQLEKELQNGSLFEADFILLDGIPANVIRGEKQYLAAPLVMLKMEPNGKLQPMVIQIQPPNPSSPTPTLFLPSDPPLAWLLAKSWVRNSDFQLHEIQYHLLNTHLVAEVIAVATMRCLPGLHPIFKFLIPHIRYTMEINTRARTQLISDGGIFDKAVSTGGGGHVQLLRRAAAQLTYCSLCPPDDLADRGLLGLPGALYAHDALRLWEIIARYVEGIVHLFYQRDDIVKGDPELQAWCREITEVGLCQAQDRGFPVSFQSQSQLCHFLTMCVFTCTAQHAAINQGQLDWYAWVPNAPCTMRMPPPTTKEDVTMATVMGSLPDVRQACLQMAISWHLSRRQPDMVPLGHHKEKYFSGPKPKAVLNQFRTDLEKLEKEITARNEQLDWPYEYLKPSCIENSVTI

The structures appear in SMILES notation. Only a part is listed here, and it is no random draw. Calls of active or inactive are those of the source. Calls follow the shape of the dose curve; as a rule, active = well fitted inhibition curve with a large enough effect; inconclusive = small, poorly fitted or top-dose-only effect; inactive = flat fitted curve, though single readings scatter.
% is scaled to controls: 0 for no effect and ±100 for the full control effect.

In the assay the target is Polyunsaturated fatty acid lipoxygenase ALOX12 (Homo sapiens) (UniProt P18054). The assay is described as follows: qHTS Assay for Inhibitors of 12-hLO (12-human lipoxygenase). Also: nearly all actives have a fitted effect of over 55% in size. The conditions noted are these: purified 12-hLO, xylenol orange hydroperoxide absorbance; at 57.1 µM (top of the series) unless noted. From the text: Assay Provider: Holman, T.R., University of California, Santa Cruz Screening Center PI: Austin, C.P. Screening Center: NIH Chemical Genomics Center [NCGC] Human lipoxygenase 12hLO is a member of the closely related lipoxygenase family of enzymes which catalyze the site-specific oxidation of arachidonic acid to various hormone precursor molecules and as such is a candidate for drug development in a variety of disease areas, such as cancer and inflammation. Inhibition of 12hLO activity was screened by utilizing arachidonic acid as a substrate. The extent of hydroperoxide product formation was measured by a secondary chromogenic reaction in which xylenol orange (XO, Sigma-Aldrich, cat. number 39,818-7) reacts with the ferric ions produced from the reaction between the hydroperoxide and ferrous ions. The Fe(III)-XO complex is characterized with red-shifted absorbance at 560 nm. A purified preparation of human 12hLO was supplied by Professor Ted Holman, University of California, Santa Cruz.
Assay Protocol: Buffer: 25 mM Hepes pH 7.0, 0.01% Triton X-100. Reagents/Controls: Buffer in columns 3 and 4 as negative control (no enzyme). Substrate solution: 40 uM arachidonic acid (Sigma-Aldrich, St. Louis, MO) final concentration dispensed throughout the plate. Enzyme: 150 nM 12hLO final concentration in columns 1, 2, 5-48. Column 1 is neutral (100% activity). Column 2 contained pin-transferred titration of NDGA (nordihidroguaiaretic acid, Sigma-Aldrich, N 5023, top concentration 20 mM in DMSO, then 1:3 dilution in duplicate). (Dilution factor: 23 nL into 4 uL.) Chromogenic detection reagent (divalent iron/xylenol orange, Fe-XO): 200 uM xylenol orange plus 300 uM ferrous ammonium sulfate prepared freshly in 50 mM sulfuric acid. Assay Steps: Three uL of enzyme were dispensed to 1536-well Greiner black clear bottom plates. Compounds and controls (23 nL) were transferred via Kalypsys PinTool. The plates were incubated for 15 min at room temperature, and then 1 uL of substrate solution was added to start the reaction. After room temperature incubation for 30 minutes, 4 uL of Fe-XO solution was added to each well and the plates were incubated for 30 min. The absorbance at 405 and 573 nm were measured using ViewLux (Perkin-Elmer) High-throughput CCD imager and absorbance protocol settings. The 573-to-405 absorbance ratio was used to compute reaction progress.
Turning to `NC1CCCCC1.NP(=O)(O)N(CCCl)CCCl`, the activity change, negative = inhibition was inactive: -1.23% [at 11.4 µM].
In the case of `CCOP(=O)(Cl)Cl` it was inactive: 0.185%; in that of `O=C(NCC1(N2CCOCC2)CCCCC1)c1cc(=O)[nH]c2ccccc12`, inactive: 7.43%; in that of `CN1CCN(CCOC(=O)C(O)(c2ccccc2)c2ccccc2)CC1`, inactive: 2.33%.
In the case of `N#CC1(Nc2ccccc2)CCN(CCc2ccccc2)CC1` it was inactive: -12.8%; in that of `COc1ccc(NC2CCN(CCc3ccccc3)CC2)c(OC)c1`, inactive: -11.5%; in that of `O=C(OC1CN2CCC1CC2)C1c2ccccc2Oc2ccccc21` (configuration not stated), inactive: 1.04%.
On to `O=C(NCC1(N2CCOCC2)CCCCC1)c1cc2ccccc2o1`, for which the activity change, negative = inhibition was inactive: -10.3%.
In the case of `CCC(CO)(C(=O)OC1CN2CCC1CC2)c1ccccc1` (configuration not stated) it was inactive: -1.9%; in that of `O=C(O)C1(Nc2ccccc2)CCN(Cc2ccccc2)CC1`, inactive: 2.3% [at 11.4 µM].
In the case of `CCOc1ncccc1C(=O)NCC1(N2CCOCC2)CCCCC1` it was inactive: -0.138%; in that of `CCN1CCC(Nc2cccc(F)c2)CC1`, inactive: -1.72%.
In the case of `Fc1ccccc1NC1CCN(Cc2ccccc2)CC1` it was inactive: -2.89%; in that of `ClCCOP(OCCCl)OCCCl`, inactive: -5.84%.
For `c1ccc(CN2CCC(Nc3ccccc3)CC2)cc1`, the activity change, negative = inhibition was inactive: -1.3%.
In the case of `O=C(OC1CN2CCC1CC2)C1c2ccccc2C=Cc2ccccc21` (configuration not stated) it was inactive: 5.06%.
In the case of `N/C(=N\O)c1c(N)no[n+]1[O-]` it was inactive: -3.53%.
